The numbers were not newly measured in US10010525B2, “Methods of inducing anesthesia” (The Regents of the University of California, priority 2012, dated 2018), which cites them from elsewhere.

The series has as its target NMDA receptor. The note with it: read-out: IC50, inhibition of NMDA receptor currents; cited from earlier work.

Molecules are shown by their SMILES. pIC50: −log10 of the molar value.

Turning to `CNC1(c2ccccc2Cl)CCCCC1=O` (stereo not shown) [Ketamine], the negative-log IC50 (pIC50) (in general, the IC50 on a negative log10 scale, so that one unit is a factor of ten) was 4.85.
